{
  "source": "BindingDB's records for doi:10.1021/jm010117d",
  "about": "(Glaxosmithkline, 2001)",
  "molecular_target": "Cyclin-A2/Cyclin-dependent kinase 2 (Homo sapiens, UniProt P24941)",
  "data": [
    {"compound": "CNS(=O)(=O)c1ccc(N=CC2C(=O)Nc3ccccc32)cc1", "note": "(stereo unspecified) [N-Methyl-4-{[(2-oxo-1,2-dihydro-3H-indol-3-ylidene)-methyl]amino}benzenesulfonamide]", "values": [
      {"measurement": "IC50", "result": 0.56, "unit": "µM"}
    ]}
  ]
}
